Results on one molecule are retold here after paper PMC2951497 (Journal of medicinal chemistry, 2010).

Protein sequences, listed by entry. Tags and fused reporters are not part of them. Lines headed by an entry give the natural chain unless they say otherwise; changes in a name come on top.
UniProt Q13639: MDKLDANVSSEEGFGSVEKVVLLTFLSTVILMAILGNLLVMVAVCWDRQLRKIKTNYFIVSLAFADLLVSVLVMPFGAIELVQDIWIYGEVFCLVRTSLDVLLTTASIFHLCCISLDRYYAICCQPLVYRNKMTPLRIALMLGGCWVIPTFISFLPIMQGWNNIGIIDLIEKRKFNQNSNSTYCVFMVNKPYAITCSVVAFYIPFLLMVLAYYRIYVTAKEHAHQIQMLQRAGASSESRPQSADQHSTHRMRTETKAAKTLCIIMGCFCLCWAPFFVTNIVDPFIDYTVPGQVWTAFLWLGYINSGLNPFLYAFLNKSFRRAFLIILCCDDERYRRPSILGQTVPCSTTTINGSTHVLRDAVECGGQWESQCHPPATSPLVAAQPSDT

The structures appear in SMILES notation.

The target in the test is human recombinant 5-HT4 receptors (h5-HT4) (Homo sapiens, UniProt Q13639). As to the kind of experiment: NIMH-PDSP binding to human recombinant 5-HT4 receptors, [3H]GR 113808. The settings on record: h5-HT4 receptors expressed in HEK293T cells; averages of triplicate measurements.

Take `CCCCN1CCC(COC(=O)c2ccc(N)cc2OC)CC1` [Compound 12, (1-Butylpiperidin-4-yl)methyl 4-amino-2-methoxybenzoate]: the “h5-HT4 Ki” value is “much reduced affinity”.
